The text below walks through data of patent US9278978B2.

As usually defined, the IC50 is the concentration needed to halve the response being measured.

The target in this experiment is cIAP1 BIR3 (Homo sapiens (Human), UniProt Q13490). Kind of experiment: cIAP1 BIR3 binding assay (DELFIA), BIR3 domain-SMAC peptide interaction. Conditions: BIR3 domain 10 nM, SMAC peptide 10 nM; (S)-isomer (examples 1-34, 38-43) or racemate (examples 35-37); read-out: cIAP1 BIR-3 IC50.
As to `CNC(C)C(=O)Nc1cc(-c2nc(C)nc3c(C)nn(C)c23)cc(C#Cc2ccc3c(cnn3C)c2)n1` (stereo not shown) [Example 17, N-{6-[2-(1-methyl-1H-indazol-5-yl)ethynyl]-4-{trimethyl-1H-pyrazolo[4,3-d]pyrimidin-7-yl}pyridin-2-yl}-2-(methylamino)propanamide], the half-maximal inhibitory concentration (IC50) came to 1 nM.
With `CNC(C)C(=O)Nc1cc(-c2ccccc2)cc(C#Cc2ccccc2)n1` (stereo not shown) [Example 33, 2-(methylamino)-N-[4-phenyl-6-(2-phenylethynyl)pyridin-2-yl]propanamide] the figure was 2640 nM.
With `CNC(C)C(=O)Nc1cc(-c2nc(C)nc3c(C)nn(C)c23)cc(C#Cc2ccc3c(C)nccc3c2)n1` (stereo not shown) [Example 16, 2-(methylamino)-N-{6-[2-(1-methylisoquinolin-6-yl)ethynyl]-4-{trimethyl-1H-pyrazolo[4,3-d]pyrimidin-7-yl}pyridin-2-yl}propanamide] the figure was 1 nM; with `CNC(C)C(=O)Nc1cc(-c2cccc3cnn(C)c23)c(Cl)c(C#Cc2ccc3c(ccc(=O)n3C)c2)n1` (stereo not shown) [Example 25, N-[5-chloro-4-(1-methyl-1H-indazol-7-yl)-6-[2-(1-methyl-2-oxo-1,2-dihydroquinolin-6-yl)ethynyl]pyridin-2-yl]-2-(methylamino)propanamide], 10 nM.
